Laboratory results: patent US20240368178A1, “IMIDAZOCYCLIC COMPOUND AND APPLICATION THEREOF” (DONGBAO PURPLE STAR (HANGZHOU) BIOPHARMACEUTICAL CO., LTD., priority 2021, published 2024)

Chains of the proteins cited; added tags and fusions are not shown. Residues count along the entry.
UniProt P43220, 24-463 limits assumed: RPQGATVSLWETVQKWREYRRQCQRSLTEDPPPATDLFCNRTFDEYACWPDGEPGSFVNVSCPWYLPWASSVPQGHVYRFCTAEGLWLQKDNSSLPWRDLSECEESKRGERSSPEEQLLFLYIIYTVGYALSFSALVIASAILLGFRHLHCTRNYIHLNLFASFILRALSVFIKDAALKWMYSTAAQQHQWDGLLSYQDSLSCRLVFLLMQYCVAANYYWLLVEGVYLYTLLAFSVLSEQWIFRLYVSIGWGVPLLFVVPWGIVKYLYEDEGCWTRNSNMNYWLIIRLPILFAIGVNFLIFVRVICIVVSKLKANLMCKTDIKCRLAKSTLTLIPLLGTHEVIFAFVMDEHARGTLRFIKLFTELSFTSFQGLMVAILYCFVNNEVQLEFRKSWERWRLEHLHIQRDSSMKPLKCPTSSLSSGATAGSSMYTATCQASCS

Molecular target: Human-GLP-1 receptor (Homo sapiens (Human), UniProt P43220)
Assay: In vitro cell activity assay (cAMP, HEK293 GLP-1 cells)
Conditions: read-out: Human-GLP-1, EC50, cAMP detection
Procedure: Experimental Example 1: In Vitro Cell Activity Assay
The host cell HEK293 for GLP-1 was constructed by WuXi AppTec (Shanghai) Co., Ltd.
cAMP Detection Kit, Cisbio (Cat #62AM4PEJ); 1M HEPES, Invitrogen (Cat #15630-106); 1×HBSS, Invitrogen (Cat #14025); BSA, Sigma (Cat #B2064); IBMX, Sigma (Cat #I5879); Exenatide, Hao Yuan (HY-13443A).
The compounds were prepared into a working solution with a concentration of 30 μM using DMSO. In this assay, each sample was used in an amount of 5 μL.
• 24.5 mL of Hanks Buffer Saline Solution (HBSS), final concentration: lx; • 125 μL of HEPES 1M, final concentration: 5 mM; • 333 μL of 7.5% BSA Solution, final concentration: 0.1%; • 25 μL of IBMX 500 mmol/L, final concentration: 0.5 mmol/L.
Preparation of cAMP assay reagent: 250 μL of cAMP-D2 and 250 μL of anti-cAMP cryptate reagent were added to 4 mL of lysis buffer and mixed gently.
The compound to be tested was diluted 3-fold at 10 points with a starting concentration of 30 μM, and the dilution was completed using Bravo.
Exenatide, used as a control compound, was diluted 3-fold at 10 points with a starting concentration of 500 nM, and the dilution was completed using Bravo.
• 1) 100 nL of compound was transferred to an OptiPlate-384 plate using Echo. • 2) The OptiPlate-384 plate was centrifuged at 1000 rpm for 5 seconds.
• 1) A GLP-1 cell cryopreservation tube was rapidly thawed in a 37° C. water bath. • 2) The cell suspension was transferred to a 15 mL Transfer centrifuge tube and gently rinsed with 10 mL of HBSS. • 3) The centrifuge tube was centrifuged at 1000 rpm for 1 minute at room temperature. • 4) The supernatant was discarded. • 5) The cells at the bottom were gently dispersed, then rinsed with 10 mL of HBSS, centrifuged to sedimentation, and finally resuspended in the experimental buffer. • 6) The cell density and activity were measured using Vi-cell. • 7) The concentration of GLP-1 cells was diluted to 2.0*105/mL with the experimental buffer. • 8) […] of the diluted cell suspension was transferred to the OptiPlate-384 plate. • 9) The plate was incubated at room temperature for 30 minutes.
• 1) 10 μL of 800 nM gradient-diluted cAMP standard was added to the empty wells of the OptiPlate-384 plate. • 2) 10 μL of cAMP assay reagent was added. • 3) The OptiPlate-384 plate was covered with TopSeal-A film and incubated for 60 minutes at room temperature.
TopSeal-A was removed and the result was read in EnVision.

Row | Structure (SMILES) | EC50 [nM]
1 | O=C(O)c1cc2c(nc(CN3CCC(c4cccc5c4OCC(c4ccc(Cl)cc4)O5)CC3)n2C[C@@H]2CCO2)s1 (single isomer, unassigned) | 1.49
2 | O=C(O)c1cc2c(nc(CN3CCC(c4cccc5c4OCC(c4ccc(Cl)cn4)O5)CC3)n2C[C@@H]2CCO2)s1 (single isomer, unassigned) | 2.9
3 | CC1(c2ccc(Cl)cn2)Oc2cccc(C3=CCN(Cc4nc5sc(C(=O)O)cc5n4C[C@@H]4CCO4)CC3)c2O1 (single isomer, unassigned) | 1.2
4 | Cn1ccc(C2(C)Oc3cccc(N4CCC(Cc5nc6sc(C(=O)O)cc6n5C[C@@H]5CCO5)CC4)c3O2)n1 (single isomer, unassigned) | 4.81
